Assay [1] has as its target His-tagged BRD4 BD2 (333-460) (Homo sapiens, UniProt O60885). Kind of assay: AlphaLISA competition assay, BRD4 BD2. The conditions noted are these: BRD4-BD2, AlphaLISA competition with biotinylated histone H4K5/8/12/16(Ac) peptide, 20 nM. The protocol: (§1) Exemplary compounds were tested for ability to bind to bromodomain-containing protein 4 (BRD4).
(§2) Compounds were tested using a developed AlphaLISA competition assay. Briefly, His-tagged BRD4 BD1 (46-168) and biotinylated histone H4K5/8/12/16(Ac) peptide (ANASPEC, AS-64989-1) were incubated in 20 mM HEPES pH 7.5, 100 mM NaCl, 0.5 mM TCEP, 0.1% BSA, 0.02% CHAPS at a final concentration of 10 nM. Test compounds were serially diluted ten times in the same buffer and were added to the BRD4-peptide mixture for 1 h incubation at room temperature. Following incubation, Streptavidin AlphaLISA acceptor beads (PerkinElmer, AL125M) were added to BRD4-peptide-compound samples to a final concentration of 0.01 mg/mL for a 0.5 h incubation at room temperature in the dark. Following incubation, the same amount of Nickel Chelate Alpha donor beads (PerkinElmer, AS101M) were added to the samples for a final 1 h incubation. The AlphaLISA signals were measured using an EnVision plate reader (PerkinElmer). The data were uploaded to Screening Ultra (Dotmatics) to determine the half-maximal inhibitory concentration (IC50) for each test compound.
The same assay was developed for His-tagged BRD4 BD2 (333-460) and biotinylated histone H4K5/8/12/16(Ac) peptide at a final concentration of 20 nM.
For orientation: In Alpha technology, singlet oxygen from a donor bead excites a nearby acceptor bead.

The subject of assay [2] is T-Rex 293 cell line SC cells lacking increased expression of BCL6 protein. Kind of assay: Cellular growth inhibition assay, T-Rex 293 SC cells without doxycycline (CellTiter-Glo). As to conditions: T-Rex 293 SC cells not exposed to doxycycline (no increased BCL6 expression), 72 hours, CellTiter-Glo 2.0. The protocol: (§3) Exemplary compounds were tested for ability to inhibit the proliferation of the following types of cells: (i) a T-Rex 293 cell line having increased expression of BCL6 protein due to exposure of doxycycline and (ii) a T-Rex 293 cell line lacking increased expression of BCL6 protein.
(§4) The following types of cells were prepared for this experiment: (i) a T-Rex 293 cell line having increased expression of BCL6 protein due to exposure to doxycycline and (ii) a T-Rex 293 cell line lacking increased expression of BCL6 protein. Ability of the test compounds to inhibit proliferation of the foregoing cell types was evaluated according to the procedures set forth below.
(§5) The doxycycline-inducible BCL6 protein expressing cell line was established using the following protocol: T-Rex 293 cells were purchased from Invitrogen (Cat #R71007) and transfected using Lipofectamine 2000 with the wild-type BCL6 protein sequence cloned into the pcDNA4/TO vector. […] Clones were analyzed for expression of BCL6 protein in the presence and absence of 10 ng/mL doxycycline (Sigma Cat #D9891), and a single doxycycline-inducible clone (hereinafter “SC”) was selected for use in downstream assays. […]
(§6) At the end of the treatment duration, cell viability was quantified with CellTiter-Glo 2.0 reagent (Promega Cat #G9243). […]
(§7) Data was normalized using zero luminescence for baseline. […]

The subject of assay [3] is Farage cell line. Kind of assay: Cellular growth inhibition assay, Farage cells (CellTiter-Glo). As to conditions: Farage cell line (DLBCL), 72 hours, CellTiter-Glo 2.0. The method, then:
Exemplary compounds were tested for ability to inhibit the proliferation of Su-DHL-4 and Farage cells. Su-DHL-4 and Farage cells are commercially available diffuse large B cell lymphoma cell lines (DLBCL).
Su-DHL-4 and Farage cells were purchased from American Type Cell Culture (ATCC Cat #CRL-2957/CRL-2630) and then seeded on poly-D-lysine coated, black clear-bottom 384-well plates at 3000/well in 25 μL Roswell Park Memorial Institute media (RPMI-1640) supplemented with 10% w/w Fetal bovine serum (FBS) and 1% w/w Pen-Strep. Pen-Strep is a commercially available mixture of penicillin G and streptomycin, which is used in mammalian cell culture media to prevent bacterial contamination. Roswell Park Memorial Institute media (RPMI-1640) supplemented with 10% w/w fetal bovine serum (FBS), and 1% w/w Pen-Strep is herein referred to as Treatment Medium. […]
At the end of the treatment duration, cell viability was quantified with CellTiter-Glo 2.0 reagent (Promega Cat #G9243). […] Following incubation, the plates were spun at 3000×g for 30 seconds, then sealed with an optical adhesive cover, and luminescence readings were measured with an EnVision Plate Reader (Perkin Elmer).
as §7
A general note: In ATP-based viability assays light output follows the ATP content of the culture.

The test system of assay [4] is T-Rex 293 cell line SC cells having increased expression of BCL6 protein. Put plainly: Cellular growth inhibition assay, T-Rex 293 SC cells with doxycycline (CellTiter-Glo). The conditions noted are these: T-Rex 293 SC cells with 10 ng/mL doxycycline (increased BCL6 expression), 72 hours, CellTiter-Glo 2.0. The method, then:
as §3, §4, §5, §6, §7

Assay [5] deals with His-tagged BRD4 BD1 (46-168) (Homo sapiens, UniProt O60885). Put plainly: AlphaLISA competition assay, BRD4 BD1. The conditions noted are these: BRD4-BD1, AlphaLISA competition with biotinylated histone H4K5/8/12/16(Ac) peptide, 10 nM. The method, then: as §1, §2
For assay [6], the target named is biotinylated BCL6 (5-129) (Homo sapiens, UniProt P41182). Put plainly: SPR assay for binding affinity to BCL6. The conditions noted are these: Biacore 8K, 25° C., immobilized biotinylated BCL6 (5-129). The method, then: Exemplary compounds were tested for ability to bind to B-cell lymphoma 6 (BCL6) protein.
Binding studies by surface plasmon resonance (SPR) were performed using a Biacore 8K (Cytiva) instrument at 25° C. Briefly, biotinylated BCL6 (5-129) was diluted in 10 mM HEPES pH 7.4, 150 mM NaCl, 0.05% Surfactant P20, 0.5 mM TCEP, 3% DMSO to 1-5 μg/mL and was immobilized on an SA sensor chip (Cytiva, BR100032), resulting in surface densities at 1000-3000 resonance units (RUs). Test compounds were serially diluted five times in the same buffer and were injected to the immobilized surface. Kinetic determination experiments were performed using single-cycle kinetics with 110-120 s contact time, 1000-4000 s dissociation time, 30 μL/min flow rate. Binding data were analyzed by using Biacore insight evaluation software to determine KD values for test compounds.
A general note: SPR reads the build-up and loss of mass on a sensor chip optically.

The term IC50 denotes the concentration needed to halve the response being measured. Low values mean greater potency, high ones weaker potency. As a reminder, the GI50 is the concentration giving 50% growth inhibition. Read a low GI50 as more potent growth inhibition. What is called Kd is a measure of binding affinity in units of concentration. A lower Kd goes with higher affinity.

`CNC(=O)COc1cc2cc(Nc3nc(N4CCC(CN5CCN(CC[C@H]6C[C@H](Oc7ccc(C(C)(C)O)cc7-c7cn(C)c(=O)c8[nH]ccc78)C6)CC5)CC4)ncc3Cl)ccc2n(C)c1=O`: the IC50 in assay [1] and in assay [5] was below 0.005 µM throughout. Besides, the GI50 in assay [2], in assay [3] and in assay [4] was below 0.5 µM in each case. Moreover, the Kd in assay [6] was 0.001 to 0.01 µM.

With `CNC(=O)COc1cc2cc(Nc3nc(N4CCC(CN5CCCC6(C5)CN(C[C@H]5C[C@H](Oc7ccc(C(C)(C)O)cc7-c7cn(C)c(=O)c8[nH]ccc78)C5)C6)CC4)ncc3Cl)ccc2n(C)c1=O`, the concentration for half-maximal inhibition (IC50) in assay [1] and in assay [5] was below 0.005 µM in each case. For the same compound, the GI50 in assay [2], in assay [3] and in assay [4] was below 0.5 µM each time. In addition, in assay [6], the Kd was 0.001 to 0.01 µM.

The values above are taken from patent publication US20260028338A1, “HETEROBIFUNCTIONAL COMPOUNDS AND METHODS OF TREATING DISEASE” (Halda Therapeutics OpCo, Inc., priority 2023, published 2026).
